Like-named read-outs stand apart in the source and are kept apart here.

As usually defined, the EC50 is the concentration giving half of the maximal effect.

The target in one experiment is T1, CRF1R (Homo sapiens, UniProt P34998).
T1 sequence (P34998 24-415): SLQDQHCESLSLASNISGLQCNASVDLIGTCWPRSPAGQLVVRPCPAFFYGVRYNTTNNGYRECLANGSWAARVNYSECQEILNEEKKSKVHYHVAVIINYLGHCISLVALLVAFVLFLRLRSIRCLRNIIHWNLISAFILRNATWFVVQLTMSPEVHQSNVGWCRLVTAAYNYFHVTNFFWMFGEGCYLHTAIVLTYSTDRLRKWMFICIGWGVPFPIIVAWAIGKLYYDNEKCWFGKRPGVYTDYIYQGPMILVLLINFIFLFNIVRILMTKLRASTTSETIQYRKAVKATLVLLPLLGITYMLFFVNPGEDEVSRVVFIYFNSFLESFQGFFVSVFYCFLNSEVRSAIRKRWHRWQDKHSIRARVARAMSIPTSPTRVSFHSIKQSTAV
Put plainly: CRF1R agonist activity (EC50, Emax), called comparative CRF binding. Format: cell-based. Summed up:
(§1)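 Agonism is judged from increased cAMP, measured either directly in lysates or through reporter genes under a cAMP responsive element. Cells or membranes express only the receptor of interest, and vehicle-treated cells serve as control.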

The next experiment addresses T2, CRF2R (Homo sapiens, UniProt Q13324).
T2 sequence (Q13324 1-411): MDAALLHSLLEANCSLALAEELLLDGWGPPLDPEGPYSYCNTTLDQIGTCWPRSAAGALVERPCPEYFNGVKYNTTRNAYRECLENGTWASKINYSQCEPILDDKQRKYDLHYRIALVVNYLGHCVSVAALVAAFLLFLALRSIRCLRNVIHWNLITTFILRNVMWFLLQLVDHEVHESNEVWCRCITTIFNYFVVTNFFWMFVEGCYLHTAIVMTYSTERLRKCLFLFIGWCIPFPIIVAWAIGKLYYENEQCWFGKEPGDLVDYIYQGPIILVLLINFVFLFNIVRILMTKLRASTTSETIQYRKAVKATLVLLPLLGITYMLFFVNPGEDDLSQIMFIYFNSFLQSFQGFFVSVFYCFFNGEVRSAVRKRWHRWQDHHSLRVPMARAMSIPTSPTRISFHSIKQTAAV
In words: CRF2R agonist activity (EC50, Emax), called comparative CRF binding. Format: cell-based. The procedure, abridged: as §1

On to `CC[C@H](C)[C@H](NC(=O)[C@@H](NC(=O)[C@H](CC(=O)O)NC(=O)[C@H](CC(C)C)NC(=O)[C@H](CC(C)C)NC(=O)[C@H](CC(C)C)NC(=O)[C@H](CCCNC(=N)N)NC(=O)[C@H](CC(N)=O)NC(=O)[C@H](CC(N)=O)NC(=O)[C@H](C)NC(=O)[C@H](C)NC(=O)[C@H](CCC(N)=O)NC(=O)[C@H](CCC(N)=O)NC(=O)[C@H](CCCCN)NC(=O)[C@H](CCC(=O)O)NC(=O)[C@H](CCCCN)NC(=O)[C@H](CCC(=O)O)NC(=O)[C@H](CCC(N)=O)NC(=O)[C@H](CCCCN)NC(=O)[C@H](CCC(=O)O)NC(=O)[C@@H](NC(=O)[C@H](CCC(=O)O)NC(=O)[C@@H](NC(=O)[C@H](CCSC)NC(=O)[C@H](CCCCN)NC(=O)[C@H](CCCNC(=N)N)NC(=O)[C@H](CC(C)C)NC(=O)[C@H](CC(C)C)NC(=O)[C@H](Cc1ccccc1)NC(=O)[C@H](Cc1c[nH]c2ccccc12)NC(=O)[C@@H]1CCCN1C(=O)[C@H](CC(C)C)NC(=O)[C@H](CC(=O)O)NC(=O)[C@@H](NC(=O)[C@H](CO)NC(=O)[C@@H](NC(=O)[C@@H]1CCCN1C(=O)[C@@H]1CCCN1C(=O)CNC(=O)[C@@H]1CCC(=O)N1)[C@@H](C)CC)[C@@H](C)CC)[C@@H](C)CC)[C@@H](C)CC)[C@@H](C)O)C(N)=O` [compound 187], for which the EC50 was 31.6 nM on CRF1R and 10.3 nM at CRF2R.
As for `CC[C@H](C)[C@H](NC(=O)[C@@H](NC(=O)[C@H](CC(=O)O)NC(=O)[C@H](CC(C)C)NC(=O)[C@H](CC(C)C)NC(=O)[C@H](CC(C)C)NC(=O)[C@H](CCCNC(=N)N)NC(=O)[C@H](CC(N)=O)NC(=O)[C@H](CC(N)=O)NC(=O)[C@H](C)NC(=O)[C@H](C)NC(=O)[C@H](CCC(N)=O)NC(=O)[C@H](CCC(N)=O)NC(=O)[C@H](CCCCN)NC(=O)[C@H](CCC(=O)O)NC(=O)[C@H](CCCCN)NC(=O)[C@H](CCC(=O)O)NC(=O)[C@H](CCC(N)=O)NC(=O)[C@H](CCCCN)NC(=O)[C@H](CCC(=O)O)NC(=O)[C@@H](NC(=O)[C@H](CCC(=O)O)NC(=O)[C@@H](NC(=O)[C@H](CCSC)NC(=O)[C@H](CCCCN)NC(=O)[C@H](CCCNC(=N)N)NC(=O)[C@H](CC(C)C)NC(=O)[C@H](CC(C)C)NC(=O)[C@H](CC(C)C)NC(=O)[C@H](CC(C)C)NC(=O)[C@@H]1CCCN1C(=O)[C@H](CC(C)C)NC(=O)[C@H](CC(=O)O)NC(=O)[C@@H](NC(=O)[C@H](CO)NC(=O)[C@@H](NC(=O)[C@@H]1CCCN1C(=O)[C@@H]1CCCN1C(=O)CNC(=O)[C@@H]1CCC(=O)N1)[C@@H](C)CC)[C@@H](C)CC)[C@@H](C)CC)[C@@H](C)CC)[C@@H](C)O)C(N)=O` [compound 188], the EC50 at CRF1R (read-out: CRF1R EC50) is 162 nM; on CRF2R (read-out: CRF2R EC50) it was 14.6 nM.
In the case of `CC[C@H](C)[C@H](NC(=O)[C@@H](NC(=O)[C@H](CC(=O)O)NC(=O)[C@H](CC(C)C)NC(=O)[C@H](CC(C)C)NC(=O)[C@H](CC(C)C)NC(=O)[C@H](CCCNC(=N)N)NC(=O)[C@H](CC(N)=O)NC(=O)[C@H](CC(N)=O)NC(=O)[C@H](C)NC(=O)[C@H](C)NC(=O)[C@H](CCC(N)=O)NC(=O)[C@H](CCC(N)=O)NC(=O)[C@H](CCCCN)NC(=O)[C@H](CCC(=O)O)NC(=O)[C@H](CCCCN)NC(=O)[C@H](CCC(=O)O)NC(=O)[C@H](CCC(N)=O)NC(=O)[C@H](CCCCN)NC(=O)[C@H](CCC(=O)O)NC(=O)[C@@H](NC(=O)[C@H](CCC(=O)O)NC(=O)[C@@H](NC(=O)[C@H](CCSC)NC(=O)[C@H](CCCCN)NC(=O)[C@H](CCCNC(=N)N)NC(=O)[C@H](CC(C)C)NC(=O)[C@H](CC(C)C)NC(=O)[C@@H](NC(=O)[C@H](Cc1ccccc1)NC(=O)[C@@H]1CCCN1C(=O)[C@H](CC(C)C)NC(=O)[C@H](CC(=O)O)NC(=O)[C@@H](NC(=O)[C@H](CO)NC(=O)[C@@H](NC(=O)[C@@H]1CCCN1C(=O)[C@@H]1CCCN1C(=O)CNC(=O)[C@@H]1CCC(=O)N1)[C@@H](C)CC)[C@@H](C)CC)[C@@H](C)CC)[C@@H](C)CC)[C@@H](C)CC)[C@@H](C)O)C(N)=O` [compound 189], the EC50 at CRF1R came to 62.2 nM; on CRF2R it was 7 nM.

Source of the values: patent publication US7192924B2, “Corticotropin releasing factor 2 receptor agonists” (priority 2002, dated 2007).
